Test system: ES cell-derived neural progenitors
Conditions: compared with DDM
Experimental: Experimental procedures were as described in Example 1. […] Ethanol was used as control.
For long term pulse chase experiments, BrdU (Becton Dickinson) was added to the differentiation medium on the different days during 24 h at a final concentration of 10 μM. Cells were dissociated after 21 days of differentiation and plated on coated coverslips for an additional day. For short-term BrdU uptake experiments, BrdU was added to the differentiation medium during 1 hour prior to cell dissociation and replating.
For BrdU detection, medium was removed and cells were rinsed with PBS then fixed for 30 min in 4% paraformaldehyde (PFA) in PBS, pH 7.4 at 4° C. PFA was removed and cells were rinsed three times with PBS. BrdU was unmasked using an antigen retrieval method: cells were boiled during 4×5 minutes in 10 mM citrate buffer (pH 6.0) and cooled down to room temperature during 20 minutes. Immunostaining was performed as described above using mouse anti-BrdU (1/50, Becton Dickinson) or rat anti-BrdU (1/250, Abcam) antibodies. Multiple labelling was performed sequentially as described above.

CC1=C2C[C@H]3[C@@H](CC=C4C[C@@H](O)CC[C@@]43C)[C@@H]2CC[C@]12O[C@@H]1C[C@H](C)CN[C@H]1[C@H]2C [cyclopamine]
Effect on proliferative or survival rates of the neural lineage: did not have any major effect

— US8633025B2, “Generation of neuronal cells from embryonic stem cells” (Universite Libre de Bruxelles, priority 2007, dated 2014)
